ChEMBL document CHEMBL4706691, “Bicyclic Diazepinones as Dual Ligands of the α2δ-1 Subunit of Voltage-Gated Calcium Channels and the Norepinephrine Transporter” (J Med Chem, 2021)

Chains of the proteins cited; added tags and fusions are not shown.
UniProt Q9NY47, whole entry: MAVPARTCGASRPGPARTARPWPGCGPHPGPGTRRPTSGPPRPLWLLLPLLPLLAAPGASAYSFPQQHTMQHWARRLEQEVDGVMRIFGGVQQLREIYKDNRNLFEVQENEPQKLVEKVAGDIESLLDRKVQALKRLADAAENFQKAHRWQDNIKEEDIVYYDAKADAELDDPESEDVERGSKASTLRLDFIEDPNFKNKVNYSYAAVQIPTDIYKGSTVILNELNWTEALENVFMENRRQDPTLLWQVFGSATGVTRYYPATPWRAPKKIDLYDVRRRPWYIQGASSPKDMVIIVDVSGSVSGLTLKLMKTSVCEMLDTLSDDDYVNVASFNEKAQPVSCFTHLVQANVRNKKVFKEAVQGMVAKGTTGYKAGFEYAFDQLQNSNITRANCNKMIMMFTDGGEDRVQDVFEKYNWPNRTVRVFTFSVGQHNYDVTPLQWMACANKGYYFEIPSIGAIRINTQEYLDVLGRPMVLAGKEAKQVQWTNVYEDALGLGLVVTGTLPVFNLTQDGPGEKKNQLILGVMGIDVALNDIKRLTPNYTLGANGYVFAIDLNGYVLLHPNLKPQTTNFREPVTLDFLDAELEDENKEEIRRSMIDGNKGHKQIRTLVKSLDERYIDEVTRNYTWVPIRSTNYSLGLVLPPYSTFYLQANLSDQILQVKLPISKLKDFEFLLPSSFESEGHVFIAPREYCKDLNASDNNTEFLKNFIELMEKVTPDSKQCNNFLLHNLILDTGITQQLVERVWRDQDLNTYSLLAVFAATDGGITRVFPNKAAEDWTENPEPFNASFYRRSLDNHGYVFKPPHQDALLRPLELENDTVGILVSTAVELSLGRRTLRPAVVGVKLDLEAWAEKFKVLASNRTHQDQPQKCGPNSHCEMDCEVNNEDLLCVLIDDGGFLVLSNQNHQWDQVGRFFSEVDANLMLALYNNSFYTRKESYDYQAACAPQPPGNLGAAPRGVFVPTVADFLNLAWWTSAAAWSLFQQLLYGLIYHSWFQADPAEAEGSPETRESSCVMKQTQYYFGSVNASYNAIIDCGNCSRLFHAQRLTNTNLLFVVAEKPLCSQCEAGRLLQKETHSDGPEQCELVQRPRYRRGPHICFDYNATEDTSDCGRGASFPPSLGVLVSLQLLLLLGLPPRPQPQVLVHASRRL

Molecular target: Voltage-dependent calcium channel subunit alpha-2/delta-2 (Homo sapiens, UniProt Q9NY47)
Test: Displacement of [3H]-gabapentin from human Cav alpha2delta2 expressed in HEK293 cell membranes at 10 uM incubated for 60 mins by scintillation counting method
Conditions: Cell membrane

inhibition: 70%
Compound: CCNc1ncc2c(n1)N(C)CCN(c1cccc(-c3nnc(C)o3)c1)C2
